This note sets out measurements from US11001609B2, “Cell permeable cyclic peptide scaffolds” (priority 2017, dated 2021).

The format of this series is in vitro ADME.
[1] abbreviates: PAMPA Pe, 1% lecithin in n-dodecane, PBS with 5% DMSO, 25° C., 18 hours, corrected on 1NMe3 standard.
[2] abbreviates: PAMPA Pe, 1% lecithin in n-dodecane, PBS with 5% DMSO, 25° C., 18 hours, corrected to 1NMe3 standard.

Read-outs that look alike come from different tables or passages of the source.

Regarding LA02, M1, 1, P, LA08, F [Compound 749], the “Permeability Value” is 5.732 ×10⁻⁶ cm/s.
For BHF, LA08, L***, p, 1, F [Compound 585], the “Permeability Value” under setting [1] turned out to be 8.764 ×10⁻⁶ cm/s.
As for “BHF, ML***, LA08, P, LA08, F [Compound 956]”, the “Permeability Value” came out at 2.318 ×10⁻⁶ cm/s.
On the same count and under the same terms, in the case of “BHF, 1, ML***, p, LA08, F [Compound 732]” it was 6.073 ×10⁻⁶ cm/s.
Regarding “BHF, ML***, LA08, P, 1, F [Compound 492]”, under setting [1], the “Permeability Value” turned out to be 10.59 ×10⁻⁶ cm/s.
Take BHF, 1, LA08, P, LA08, F [Compound 889]: the “Permeability Value” under setting [2] was 3.337 ×10⁻⁶ cm/s.
In the case of “LA02, ML***, 1, p, LA08, F [Compound 367]”, the “Permeability Value” was determined as 12.77 ×10⁻⁶ cm/s.
Regarding “BHF, L***, LA08, p, M1, F [Compound 772]”, the “Permeability Value” under setting [1] stood at 5.385 ×10⁻⁶ cm/s.
As for a, LA08, 1, P, LA08, F [Compound 763], the “Permeability Value” came to 5.564 ×10⁻⁶ cm/s.
Take A, LA08, ML***, P, 1, F [Compound 729]: the “Permeability Value” under setting [1] came to 6.103 ×10⁻⁶ cm/s.
On to “BHF, ML***, LA08, p, LA08, F [Compound 993]”, for which the “Permeability Value” was found to be 1.57 ×10⁻⁶ cm/s.
In the case of BHF, 1, LA08, P, LA08, F [Compound 985], under setting [2], the “Permeability Value” is 1.8 ×10⁻⁶ cm/s.
Regarding LA02, M1, BHF, P, M1, F [Compound 188], the “Permeability Value” turned out to be 17.01 ×10⁻⁶ cm/s.
Still for that read-out and setting: in the case of Ma, LA08, 1, P, M1, F [Compound 252] it was 15.38 ×10⁻⁶ cm/s.
Take BHF, LA08, 1, P, L***, F [Compound 427]: the “Permeability Value” under setting [1] worked out at 11.49 ×10⁻⁶ cm/s.
“LA02, ML***, LA08, p, L***, F [Compound 883]”: the “Permeability Value” under setting [2] turned out to be 3.423 ×10⁻⁶ cm/s.
As for BHF, M1, BHF, P, 1, F [Compound 519], the “Permeability Value” amounted to 10.09 ×10⁻⁶ cm/s.
For the substance “LA02, L***, LA08, P, LA08, F [Compound 537]”, the “Permeability Value” under setting [1] was determined as 9.721 ×10⁻⁶ cm/s.
Take “BHF, ML***, ML***, P, LA08, F [Compound 454]”: the “Permeability Value” was 11.13 ×10⁻⁶ cm/s.
Consider “LA02, L***, ML***, p, M1, F [Compound 472]”, for which the “Permeability Value” under setting [1] was 10.86 ×10⁻⁶ cm/s.
The same measure, in the same setting: in the case of BHF, 1, LA08, p, M1, F [Compound 588] it was 8.698 ×10⁻⁶ cm/s.
The same measure, in the same setting: the same measure for “A, LA08, ML***, P, LA08, F [Compound 392]”: 12.02 ×10⁻⁶ cm/s.
A, LA08, L***, P, M1, F [Compound 213]: the “Permeability Value” turned out to be 16.38 ×10⁻⁶ cm/s.
Same read-out and setting: the same measure for “LA02, LA08, LA08, p, 1, F [Compound 637]”: 7.837 ×10⁻⁶ cm/s; for LA02, M1, BHF, P, M1, F [Compound 615]: 8.127 ×10⁻⁶ cm/s; for “A, ML***, LA08, p, LA08, F [Compound 574]”: 8.949 ×10⁻⁶ cm/s.
Regarding “A, LA08, ML***, P, LA08, F [Compound 550]”, the “Permeability Value” under setting [1] is 9.45 ×10⁻⁶ cm/s.
As for “LA02, LA08, ML***, P, M1, F [Compound 444]”, the “Permeability Value” under setting [1] came out at 11.22 ×10⁻⁶ cm/s.
For the substance A, LA08, L***, P, M1, F [Compound 324], the “Permeability Value” was found to be 13.55 ×10⁻⁶ cm/s.
Consider “a, LA08, LA08, P, ML***, F [Compound 372]”, for which the “Permeability Value” under setting [1] was determined as 12.6 ×10⁻⁶ cm/s.
The same measure, in the same setting: in the case of “LA02, M1, LA08, p, LA08, F [Compound 520]” it was 9.988 ×10⁻⁶ cm/s.
For the substance “A, LA08, LA08, p, L***, F [Compound 911]”, the “Permeability Value” was found to be 3.064 ×10⁻⁶ cm/s.
On to “BHF, LA08, L***, p, ML***, F [Compound 1039]”, for which the “Permeability Value” under setting [2] turned out to be 0.7376 ×10⁻⁶ cm/s.
“BHF, ML***, LA08, P, LA08, F [Compound 940]”: the “Permeability Value” is 2.559 ×10⁻⁶ cm/s.
On the same count and under the same terms, in the case of BHF, LA08, M1, p, M1, F [Compound 406] it was 11.86 ×10⁻⁶ cm/s.
Take “BHF, LA08, M1, P, L***, F [Compound 553]”: the “Permeability Value” under setting [1] is 9.359 ×10⁻⁶ cm/s.
For “LA02, LA08, 1, p, L***, F [Compound 741]”, the “Permeability Value” came to 5.85 ×10⁻⁶ cm/s.
As for LA02, M1, BHF, P, L***, F [Compound 77], the “Permeability Value” under setting [1] turned out to be 21.86 ×10⁻⁶ cm/s.
As for “BHF, ML***, LA08, p, LA08, F [Compound 781]”, the “Permeability Value” worked out at 5.269 ×10⁻⁶ cm/s.
Take “LA02, LA08, L***, p, L***, F [Compound 479]”: the “Permeability Value” under setting [1] is 10.76 ×10⁻⁶ cm/s.
The same measure, in the same setting: in the case of “LA02, ML***, LA08, P, LA08, F [Compound 687]” it was 6.944 ×10⁻⁶ cm/s.
Regarding “BHF, ML***, M1, P, LA08, F [Compound 953]”, the “Permeability Value” under setting [2] is 2.335 ×10⁻⁶ cm/s.
Regarding A, LA08, M1, p, L***, F [Compound 801], the “Permeability Value” was 5 ×10⁻⁶ cm/s.
For the substance “LA02, M1, L***, P, LA08, F [Compound 616]”, under setting [1], the “Permeability Value” was 8.119 ×10⁻⁶ cm/s.
Turning to Ma, M1, BHF, p, LA08, F [Compound 966], the “Permeability Value” under setting [2] worked out at 2.131 ×10⁻⁶ cm/s.
As to “MA, ML***, BHF, p, LA08, F [Compound 746]”, the “Permeability Value” under setting [1] stood at 5.796 ×10⁻⁶ cm/s.
For LA02, 1, BHF, P, L***, F [Compound 469], the “Permeability Value” is 10.94 ×10⁻⁶ cm/s.
As for “BHF, LA08, L***, P, L***, F [Compound 303]”, the “Permeability Value” under setting [1] worked out at 13.96 ×10⁻⁶ cm/s.
The same measure, in the same setting: in the case of LA02, L***, BHF, p, 1, F [Compound 727] it was 6.128 ×10⁻⁶ cm/s.
On the same count and under the same terms, the same measure for “MA, LA08, ML***, P, M1, F [Compound 754]”: 5.643 ×10⁻⁶ cm/s.
For LA02, 1, BHF, p, L***, F [Compound 661], the “Permeability Value” worked out at 7.429 ×10⁻⁶ cm/s.
In the case of BHF, M1, BHF, P, L***, F [Compound 360], the “Permeability Value” under setting [1] was 12.96 ×10⁻⁶ cm/s.
With LA02, 1, M1, P, M1, F [Compound 21], the “Permeability Value” amounted to 26.83 ×10⁻⁶ cm/s.
On the same count and under the same terms, in the case of BHF, M1, BHF, P, 1, F [Compound 371] it was 12.6 ×10⁻⁶ cm/s; in that of a, LA08, LA08, p, 1, F [Compound 771], 5.398 ×10⁻⁶ cm/s; in that of A, LA08, 1, P, LA08, F [Compound 330], 13.47 ×10⁻⁶ cm/s.
On to BHF, M1, BHF, P, 1, F [Compound 719], for which the “Permeability Value” turned out to be 6.245 ×10⁻⁶ cm/s.
Turning to LA02, 1, ML***, P, M1, F [Compound 178], the “Permeability Value” under setting [1] turned out to be 17.47 ×10⁻⁶ cm/s.
Consider “LA02, ML***, 1, p, LA08, F [Compound 189]”, for which the “Permeability Value” worked out at 16.99 ×10⁻⁶ cm/s.
On the same count and under the same terms, in the case of BHF, LA08, 1, P, M1, F [Compound 721] it was 6.204 ×10⁻⁶ cm/s; in that of “A, LA08, LA08, p, L***, F [Compound 402]”, 11.89 ×10⁻⁶ cm/s; in that of LA02, M1, BHF, P, M1, F [Compound 98], 20.42 ×10⁻⁶ cm/s.
The same measure, in the same setting: the same measure for LA02, M1, BHF, p, M1, F [Compound 304]: 13.94 ×10⁻⁶ cm/s.
Same read-out and setting: in the case of LA02, LA08, M1, P, 1, F [Compound 531] it was 9.778 ×10⁻⁶ cm/s; in that of BHF, LA08, M1, p, M1, F [Compound 726], 6.152 ×10⁻⁶ cm/s; in that of LA02, 1, M1, p, M1, F [Compound 663], 7.403 ×10⁻⁶ cm/s.
With “BHF, LA08, LA08, p, L***, F [Compound 997]”, under setting [2], the “Permeability Value” is 1.489 ×10⁻⁶ cm/s.
With “MA, LA08, ML***, p, ML***, F [Compound 468]”, under setting [1], the “Permeability Value” was found to be 10.95 ×10⁻⁶ cm/s.
